# Measured values reported in patent US20240360179A1, “STAPLED PEPTIDES AND METHODS THEREOF” (FOG PHARMACEUTICALS, INC., priority 2021, published 2024).
# Protein sequences, listed by entry. Tags and fused reporters are not part of them. Residues count along the entry.
# UniProt P35222, whole entry: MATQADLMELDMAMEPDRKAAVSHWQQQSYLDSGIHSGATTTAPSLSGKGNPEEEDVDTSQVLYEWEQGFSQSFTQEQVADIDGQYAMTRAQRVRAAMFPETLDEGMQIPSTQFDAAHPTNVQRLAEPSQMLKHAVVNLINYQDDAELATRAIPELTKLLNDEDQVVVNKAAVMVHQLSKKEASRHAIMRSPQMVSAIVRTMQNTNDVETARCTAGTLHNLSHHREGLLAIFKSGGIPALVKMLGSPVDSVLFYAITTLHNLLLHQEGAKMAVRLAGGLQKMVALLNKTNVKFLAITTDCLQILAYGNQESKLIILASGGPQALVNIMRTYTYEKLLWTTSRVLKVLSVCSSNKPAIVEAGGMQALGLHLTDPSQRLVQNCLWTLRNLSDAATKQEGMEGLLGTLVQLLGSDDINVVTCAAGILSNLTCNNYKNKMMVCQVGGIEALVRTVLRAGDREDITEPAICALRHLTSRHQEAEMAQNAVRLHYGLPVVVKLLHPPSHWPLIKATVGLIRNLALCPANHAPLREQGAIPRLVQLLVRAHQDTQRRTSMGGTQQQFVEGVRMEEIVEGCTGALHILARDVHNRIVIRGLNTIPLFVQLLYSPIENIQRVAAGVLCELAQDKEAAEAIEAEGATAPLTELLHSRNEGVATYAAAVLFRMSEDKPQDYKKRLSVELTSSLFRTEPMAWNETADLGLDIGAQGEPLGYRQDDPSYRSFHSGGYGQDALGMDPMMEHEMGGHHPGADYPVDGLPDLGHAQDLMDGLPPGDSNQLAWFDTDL
# UniProt P35222, 2-781: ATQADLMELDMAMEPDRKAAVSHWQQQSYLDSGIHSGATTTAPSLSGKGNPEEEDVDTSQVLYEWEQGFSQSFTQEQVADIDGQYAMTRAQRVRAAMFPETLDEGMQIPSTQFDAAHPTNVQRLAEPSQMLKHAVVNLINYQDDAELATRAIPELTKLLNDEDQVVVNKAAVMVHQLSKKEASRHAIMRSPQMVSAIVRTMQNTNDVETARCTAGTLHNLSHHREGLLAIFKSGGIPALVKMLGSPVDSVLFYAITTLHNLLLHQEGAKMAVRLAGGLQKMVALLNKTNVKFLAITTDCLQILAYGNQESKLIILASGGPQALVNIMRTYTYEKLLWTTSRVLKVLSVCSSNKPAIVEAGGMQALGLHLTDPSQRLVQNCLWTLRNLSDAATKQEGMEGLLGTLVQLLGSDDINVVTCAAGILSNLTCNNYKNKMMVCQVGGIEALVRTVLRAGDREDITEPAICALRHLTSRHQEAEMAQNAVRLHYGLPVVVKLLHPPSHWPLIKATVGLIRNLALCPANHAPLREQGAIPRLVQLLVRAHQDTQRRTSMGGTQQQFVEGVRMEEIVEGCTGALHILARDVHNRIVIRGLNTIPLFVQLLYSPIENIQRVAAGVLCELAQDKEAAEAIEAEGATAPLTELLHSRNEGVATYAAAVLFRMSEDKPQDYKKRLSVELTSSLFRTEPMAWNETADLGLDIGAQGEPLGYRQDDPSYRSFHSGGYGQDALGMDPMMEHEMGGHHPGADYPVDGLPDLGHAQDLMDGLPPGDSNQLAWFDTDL
# Assays:
# [1] = target: T1, full-length B-Catenin (Uniprot ID P35222) (Homo sapiens, UniProt P35222); assay: biochemical; type: binding; details: beta-Catenin FP IC50 (nM), competition fluorescence polarization
# T1 construct: 10 nM full-length B-Catenin (Uniprot ID P35222)
# [2] = target: beta-catenin/TCF4 interaction (Homo sapiens, UniProt P35222); assay: cell-based; parameters: host or cells: HEK293; details: NanoBRET Abs IC50 (uM), absolute IC50
# [3] = target: TCF/LEF luciferase reporter in DLD1 cells (Homo sapiens, UniProt P35222); assay: TCF reporter assay in DLD1 cells (4% or 20% FBS); type: cell-based; details: read-out: DLD1 4% Abs IC50, 4% FBS
Compound,IC50 [1] [nM],IC50 [2] [µM],IC50 [3] [nM]
"CC(=O)N1CCC[C@]12CC=CCCCC1(CCCC=CCCCOC(=O)N3CC[C@@]4(C3)NC(=O)[C@H](CCCCn3cc(nn3)C[C@@H](C(=O)N[C@@H](C)C(N)=O)NC(=O)[C@H](Cc3csc5ccccc35)NC(=O)[C@H](Cc3ccsc3)NC4=O)NC(=O)[C@H](Cc3ccccc3)NC(=O)[C@H](C)NC(=O)[C@H](C)NC(=O)[C@H](Cc3cccc(C(=O)O)c3)NC(=O)[C@H](CC(=O)O)NC1=O)NC(=O)[C@H](CC(C)(C)C)NC(=O)[C@H](CC(=O)O)NC2=O (stereo partly drawn) [I-337, Ac-PL3-Asp-Npg-B5-Asp-3COOHF-Ala-Ala-Phe-TriAzLys*3-PyrS2-3Thi-BztA-sAla*3-Ala-NH2]",< 50,1.5 to 3,–
"CC(=O)N1CCC[C@]12CC=CCCCC1(CCCC=CCCCOC(=O)N3CC[C@@]4(C3)NC(=O)[C@H](Cc3cn(nn3)CCCC[C@@H](C(=O)N[C@@H](C)C(N)=O)NC(=O)[C@H](Cc3csc5ccccc35)NC(=O)[C@H](Cc3ccsc3)NC4=O)NC(=O)[C@H](Cc3ccccc3)NC(=O)[C@H](C)NC(=O)[C@H](C)NC(=O)[C@H](Cc3cccc(C(=O)O)c3)NC(=O)[C@H](CC(=O)O)NC1=O)NC(=O)[C@H](CC(C)(C)C)NC(=O)[C@H](CC(=O)O)NC2=O (stereo partly drawn) [I-338, Ac-PL3-Asp-Npg-B5-Asp-3COOHF-Ala-Ala-Phe-sAla*3-PyrS2-3Thi-BztA-TriAzLys*3-Ala-NH2]",< 50,3 to 10,–
"CC(=O)N1CCC[C@]12CC=CCCCC1(CCCC=CCCCOC(=O)N3CC[C@@]4(C3)NC(=O)[C@H](CCCCn3cc(nn3)C[C@@H](C(=O)N[C@H](C(N)=O)C(C)C)NC(=O)[C@H](Cc3csc5ccccc35)NC(=O)[C@H](Cc3ccsc3)NC4=O)NC(=O)[C@H](Cc3ccccc3)NC(=O)[C@H](C)NC(=O)C(C)(C)NC(=O)[C@H](Cc3cccc(C(=O)O)c3)NC(=O)[C@H](CC(=O)O)NC1=O)NC(=O)[C@H](CC(C)(C)C)NC(=O)[C@H](CC(=O)O)NC2=O (stereo partly drawn) [I-413, Ac-PL3-Asp-Npg-B5-Asp-3COOHF-Aib-Ala-Phe-TriAzLys*3-PyrS2-3Thi-BztA-sAla*3-Val-NH2]",< 50,< 1.5,–
"CC(=O)N1CCC[C@]12CC=CCCCC1(CCCC=CCCCOC(=O)N3CC[C@@]4(C3)NC(=O)[C@H](CCCCn3cc(nn3)C[C@@H](C(=O)N[C@@H](CC(C)C)C(N)=O)NC(=O)[C@H](Cc3csc5ccccc35)NC(=O)[C@H](Cc3ccsc3)NC4=O)NC(=O)[C@H](Cc3ccccc3)NC(=O)[C@H](C)NC(=O)C(C)(C)NC(=O)[C@H](Cc3cccc(C(=O)O)c3)NC(=O)[C@H](CC(=O)O)NC1=O)NC(=O)[C@H](CC(C)(C)C)NC(=O)[C@H](CC(=O)O)NC2=O (stereo partly drawn) [I-414, Ac-PL3-Asp-Npg-B5-Asp-3COOHF-Aib-Ala-Phe-TriAzLys*3-PyrS2-3Thi-BztA-sAla*3-Leu-NH2]",< 50,< 1.5,–
"CC(=O)N1CCC[C@]12CC=CCCCC1(CCCC=CCCCOC(=O)N3CC[C@@]4(C3)NC(=O)[C@H](CCCCn3cc(nn3)C[C@@H](C(=O)N[C@H](C(N)=O)[C@@H](C)O)NC(=O)[C@H](Cc3csc5ccccc35)NC(=O)[C@H](Cc3ccsc3)NC4=O)NC(=O)[C@H](Cc3ccccc3)NC(=O)[C@H](C)NC(=O)C(C)(C)NC(=O)[C@H](Cc3cccc(C(=O)O)c3)NC(=O)[C@H](CC(=O)O)NC1=O)NC(=O)[C@H](CC(C)(C)C)NC(=O)[C@H](CC(=O)O)NC2=O (stereo partly drawn) [I-415, Ac-PL3-Asp-Npg-B5-Asp-3COOHF-Aib-Ala-Phe-TriAzLys*3-PyrS2-3Thi-BztA-sAla*3-Thr-NH2]",< 50,< 1.5,–
"CC(=O)N1CCC[C@]12CC=CCCCC1(CCCC=CCCCOC(=O)N3CC[C@@]4(C3)NC(=O)[C@H](CCCCn3cc(nn3)C[C@@H](C(=O)N[C@@H](C)C(=O)N[C@@H](CO)C(N)=O)NC(=O)[C@H](Cc3csc5ccccc35)NC(=O)[C@H](Cc3ccsc3)NC4=O)NC(=O)[C@H](Cc3ccccc3)NC(=O)[C@H](C)NC(=O)C(C)(C)NC(=O)[C@H](Cc3cccc(C(=O)O)c3)NC(=O)[C@H](CC(=O)O)NC1=O)NC(=O)[C@H](CC(C)(C)C)NC(=O)[C@H](CC(=O)O)NC2=O (stereo partly drawn) [I-416, Ac-PL3-Asp-Npg-B5-Asp-3COOHF-Aib-Ala-Phe-TriAzLys*3-PyrS2-3Thi-BztA-sAla*3-Ala-Ser-NH2]",< 50,< 1.5,–
"CC(=O)N1CCC[C@]12CC=CCCCC1(CCCC=CCCCOC(=O)N3CC[C@@]4(C3)NC(=O)[C@H](CCCCn3cc(nn3)C[C@@H](C(=O)N[C@H](C(=O)N[C@@H](CO)C(N)=O)C(C)C)NC(=O)[C@H](Cc3csc5ccccc35)NC(=O)[C@H](Cc3ccsc3)NC4=O)NC(=O)[C@H](Cc3ccccc3)NC(=O)[C@H](C)NC(=O)C(C)(C)NC(=O)[C@H](Cc3cccc(C(=O)O)c3)NC(=O)[C@H](CC(=O)O)NC1=O)NC(=O)[C@H](CC(C)(C)C)NC(=O)[C@H](CC(=O)O)NC2=O (stereo partly drawn) [I-417, Ac-PL3-Asp-Npg-B5-Asp-3COOHF-Aib-Ala-Phe-TriAzLys*3-PyrS2-3Thi-BztA-sAla*3-Val-Ser-NH2]",< 50,1.5 to 3,–
"CC(=O)N1CCC[C@]12CC=CCCCC1(CCCC=CCCCOC(=O)N3CC[C@@]4(C3)NC(=O)[C@H](CCCCn3cc(nn3)C[C@@H](C(=O)N[C@@H](C)C(N)=O)NC(=O)[C@H](Cc3csc5ccccc35)NC(=O)[C@H](Cc3ccccc3)NC4=O)NC(=O)[C@H](Cc3ccccc3)NC(=O)[C@H](C)NC(=O)C(C)(C)NC(=O)[C@H](Cc3cccc(C(=O)O)c3)NC(=O)[C@H](CC(=O)O)NC1=O)NC(=O)[C@H](CC(C)(C)C)NC(=O)[C@H](CC(=O)O)NC2=O (stereo partly drawn) [I-418, Ac-PL3-Asp-Npg-B5-Asp-3COOHF-Aib-Ala-Phe-TriAzLys*3-PyrS2-Phe-BztA-sAla*3-Ala-NH2]",< 50,1.5 to 3,–
"CC(=O)N1CCC[C@]12CC=CCCCC1(CCCC=CCCCOC(=O)N3CC[C@@]4(C3)NC(=O)[C@H](CCCn3cc(nn3)C[C@@H](C(=O)N[C@@H](C)C(N)=O)NC(=O)[C@H](Cc3csc5ccccc35)NC(=O)[C@H](Cc3ccsc3)NC4=O)NC(=O)[C@H](Cc3ccccc3)NC(=O)[C@H](C)NC(=O)C(C)(C)NC(=O)[C@H](Cc3cccc(C(=O)O)c3)NC(=O)[C@H](CC(=O)O)NC1=O)NC(=O)[C@H](CC(C)(C)C)NC(=O)[C@H](CC(=O)O)NC2=O (stereo partly drawn) [I-421, Ac-PL3-Asp-Npg-B5-Asp-3COOHF-Aib-Ala-Phe-TriAzOrn*3-PyrS2-3Thi-BztA-sAla*3-Ala-NH2]",< 50,> 10,–
"CC(=O)N1CCC[C@]12CC=CCCCC1(CCCC=CCCCOC(=O)N3CC[C@@]4(C3)NC(=O)[C@H](CCCn3cc(nn3)C[C@@H](C(=O)N[C@@H](C)C(N)=O)NC(=O)[C@H](Cc3csc5ccccc35)NC(=O)[C@H](Cc3ccccc3)NC4=O)NC(=O)[C@H](Cc3ccccc3)NC(=O)[C@H](C)NC(=O)C(C)(C)NC(=O)[C@H](Cc3cccc(C(=O)O)c3)NC(=O)[C@H](CC(=O)O)NC1=O)NC(=O)[C@H](CC(C)(C)C)NC(=O)[C@H](CC(=O)O)NC2=O (stereo partly drawn) [I-422, Ac-PL3-Asp-Npg-B5-Asp-3COOHF-Aib-Ala-Phe-TriAzOrn*3-PyrS2-Phe-BztA-sAla*3-Ala-NH2]",< 50,> 10,–
"CC(=O)N1CCC[C@]12CC=CCCCC1(CCCC=CCCCOC(=O)N3CC[C@@]4(C3)NC(=O)[C@H](CCCn3cc(nn3)CC[C@@H](C(=O)N[C@@H](C)C(N)=O)NC(=O)[C@H](Cc3csc5ccccc35)NC(=O)[C@H](Cc3ccsc3)NC4=O)NC(=O)[C@H](Cc3ccccc3)NC(=O)[C@H](C)NC(=O)C(C)(C)NC(=O)[C@H](Cc3cccc(C(=O)O)c3)NC(=O)[C@H](CC(=O)O)NC1=O)NC(=O)[C@H](CC(C)(C)C)NC(=O)[C@H](CC(=O)O)NC2=O (stereo partly drawn) [I-423, Ac-PL3-Asp-Npg-B5-Asp-3COOHF-Aib-Ala-Phe-TriAzOrn*3-PyrS2-3Thi-BztA-sAbu*3-Ala-NH2]",< 50,3 to 10,–
"CC(=O)N1CCC[C@]12CC=CCCCC1(CCCC=CCCCOC(=O)N3CC[C@@]4(C3)NC(=O)[C@H](CCCn3cc(nn3)CC[C@@H](C(=O)N[C@@H](C)C(N)=O)NC(=O)[C@H](Cc3csc5ccccc35)NC(=O)[C@H](Cc3ccccc3)NC4=O)NC(=O)[C@H](Cc3ccccc3)NC(=O)[C@H](C)NC(=O)C(C)(C)NC(=O)[C@H](Cc3cccc(C(=O)O)c3)NC(=O)[C@H](CC(=O)O)NC1=O)NC(=O)[C@H](CC(C)(C)C)NC(=O)[C@H](CC(=O)O)NC2=O (stereo partly drawn) [I-424, Ac-PL3-Asp-Npg-B5-Asp-3COOHF-Aib-Ala-Phe-TriAzOrn*3-PyrS2-Phe-BztA-sAbu*3-Ala-NH2]",< 50,3 to 10,–
Ac-PL3-Asp-Npg-B5-Asp-TfeGA-Ala-Ala-Phe-Lys*3-PyrS2-2F3MeF-BztA-GlnR*3-Aib-NH2 [I-126],–,–,1000 to 5000
